Data published in US4324801A, “Phenylguanidine acetylsalicylate compounds, process for production thereof, and pharmaceutical composition thereof” (Banyu Pharmaceutical Co. Ltd., priority 1981, dated 1982).

Key:
rats = assay: Antipyretic activity (peptone-induced rise in rectal temperature); type: in vivo, rat (male); conditions: against the control, oral, 200 mg/kg, rat; 5% peponte s.c. (0.5 ml/100 g)
in vivo = conditions: mouse, po

Cc1cccc(Nc2ccccc2C(=O)O)c1C [Mefenamic acid, reference compound]
Inhibiting ratio (rats): 79.0% | LD50 (in vivo): 800 mg/kg
